{"sequences": {"note": "Protein sequences, listed by entry. Tags and fused reporters are not part of them. Residues count along the entry.", "UniProt Q00959, 23-1464": "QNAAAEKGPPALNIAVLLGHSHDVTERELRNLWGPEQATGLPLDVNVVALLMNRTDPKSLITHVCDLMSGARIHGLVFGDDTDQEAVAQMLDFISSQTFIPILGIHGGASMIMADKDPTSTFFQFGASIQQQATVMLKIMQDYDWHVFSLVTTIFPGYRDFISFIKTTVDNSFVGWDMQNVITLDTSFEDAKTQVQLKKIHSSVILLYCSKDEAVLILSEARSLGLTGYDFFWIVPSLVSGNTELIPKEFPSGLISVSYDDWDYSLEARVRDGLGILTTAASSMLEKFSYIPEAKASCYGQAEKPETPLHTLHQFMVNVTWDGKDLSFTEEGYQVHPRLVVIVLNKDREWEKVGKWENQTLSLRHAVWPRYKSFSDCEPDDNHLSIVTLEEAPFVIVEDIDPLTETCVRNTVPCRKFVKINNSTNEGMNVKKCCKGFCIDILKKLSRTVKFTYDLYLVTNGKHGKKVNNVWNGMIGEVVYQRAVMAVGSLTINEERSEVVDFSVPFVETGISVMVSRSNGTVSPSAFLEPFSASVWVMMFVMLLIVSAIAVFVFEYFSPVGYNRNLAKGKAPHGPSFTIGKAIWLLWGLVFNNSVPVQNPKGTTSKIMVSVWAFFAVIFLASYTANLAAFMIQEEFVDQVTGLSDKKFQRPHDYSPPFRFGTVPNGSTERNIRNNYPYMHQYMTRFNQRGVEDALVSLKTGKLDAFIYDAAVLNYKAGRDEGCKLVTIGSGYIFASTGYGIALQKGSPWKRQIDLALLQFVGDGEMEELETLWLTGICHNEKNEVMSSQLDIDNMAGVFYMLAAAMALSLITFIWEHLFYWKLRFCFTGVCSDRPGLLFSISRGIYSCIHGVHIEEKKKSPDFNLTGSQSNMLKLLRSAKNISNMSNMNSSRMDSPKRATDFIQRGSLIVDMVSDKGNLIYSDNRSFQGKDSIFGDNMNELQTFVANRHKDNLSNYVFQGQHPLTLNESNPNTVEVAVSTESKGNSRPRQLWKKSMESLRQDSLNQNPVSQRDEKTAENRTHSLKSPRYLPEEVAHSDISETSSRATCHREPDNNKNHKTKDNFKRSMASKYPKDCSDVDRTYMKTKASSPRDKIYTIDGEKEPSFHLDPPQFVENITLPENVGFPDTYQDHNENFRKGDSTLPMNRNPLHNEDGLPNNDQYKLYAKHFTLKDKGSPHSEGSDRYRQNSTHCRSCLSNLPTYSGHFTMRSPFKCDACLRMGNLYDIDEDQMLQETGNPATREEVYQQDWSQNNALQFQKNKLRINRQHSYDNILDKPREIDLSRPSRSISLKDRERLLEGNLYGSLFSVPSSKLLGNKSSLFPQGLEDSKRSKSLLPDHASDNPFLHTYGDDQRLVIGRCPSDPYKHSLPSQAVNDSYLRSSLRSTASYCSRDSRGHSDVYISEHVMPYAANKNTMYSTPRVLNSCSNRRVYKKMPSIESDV", "UniProt Q00959, 23-1464 V529I": "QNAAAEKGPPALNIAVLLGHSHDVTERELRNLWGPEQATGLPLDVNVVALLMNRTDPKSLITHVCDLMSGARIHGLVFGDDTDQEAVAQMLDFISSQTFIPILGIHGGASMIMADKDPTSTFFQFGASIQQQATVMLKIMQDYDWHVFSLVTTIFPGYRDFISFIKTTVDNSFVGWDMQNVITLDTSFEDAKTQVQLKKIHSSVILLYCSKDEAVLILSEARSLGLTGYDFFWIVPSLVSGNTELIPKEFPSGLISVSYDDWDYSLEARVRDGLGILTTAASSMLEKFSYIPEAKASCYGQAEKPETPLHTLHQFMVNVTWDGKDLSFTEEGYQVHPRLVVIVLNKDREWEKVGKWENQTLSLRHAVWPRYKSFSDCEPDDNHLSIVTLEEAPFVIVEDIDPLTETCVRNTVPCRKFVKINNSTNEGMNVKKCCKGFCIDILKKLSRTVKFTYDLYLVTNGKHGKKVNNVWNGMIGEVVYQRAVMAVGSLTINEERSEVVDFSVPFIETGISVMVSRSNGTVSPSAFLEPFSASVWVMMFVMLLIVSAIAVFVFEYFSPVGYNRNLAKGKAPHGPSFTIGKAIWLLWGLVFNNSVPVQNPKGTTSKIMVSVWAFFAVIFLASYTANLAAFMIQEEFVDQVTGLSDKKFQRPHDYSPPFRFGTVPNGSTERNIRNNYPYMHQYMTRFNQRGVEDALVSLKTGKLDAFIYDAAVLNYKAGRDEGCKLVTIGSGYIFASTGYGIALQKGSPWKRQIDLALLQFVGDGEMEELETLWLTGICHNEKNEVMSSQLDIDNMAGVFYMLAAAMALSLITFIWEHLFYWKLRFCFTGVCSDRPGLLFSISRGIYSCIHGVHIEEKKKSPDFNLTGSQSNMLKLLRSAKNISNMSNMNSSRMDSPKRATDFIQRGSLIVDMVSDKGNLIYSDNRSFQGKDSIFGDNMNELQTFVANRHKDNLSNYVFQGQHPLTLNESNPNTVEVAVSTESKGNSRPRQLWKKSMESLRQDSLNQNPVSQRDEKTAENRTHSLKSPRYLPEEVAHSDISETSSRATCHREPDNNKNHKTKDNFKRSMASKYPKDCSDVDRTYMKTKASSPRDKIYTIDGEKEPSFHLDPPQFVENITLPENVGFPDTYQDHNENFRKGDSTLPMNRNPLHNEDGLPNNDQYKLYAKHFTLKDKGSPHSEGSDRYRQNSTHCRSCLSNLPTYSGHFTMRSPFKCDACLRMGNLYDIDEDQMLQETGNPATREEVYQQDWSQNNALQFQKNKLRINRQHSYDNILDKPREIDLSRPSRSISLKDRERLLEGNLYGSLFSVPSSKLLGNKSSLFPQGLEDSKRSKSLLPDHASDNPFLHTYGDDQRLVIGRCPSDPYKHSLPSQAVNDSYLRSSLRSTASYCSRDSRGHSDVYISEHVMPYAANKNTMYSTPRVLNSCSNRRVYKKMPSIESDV", "UniProt Q00959, 23-1464 Y754K": "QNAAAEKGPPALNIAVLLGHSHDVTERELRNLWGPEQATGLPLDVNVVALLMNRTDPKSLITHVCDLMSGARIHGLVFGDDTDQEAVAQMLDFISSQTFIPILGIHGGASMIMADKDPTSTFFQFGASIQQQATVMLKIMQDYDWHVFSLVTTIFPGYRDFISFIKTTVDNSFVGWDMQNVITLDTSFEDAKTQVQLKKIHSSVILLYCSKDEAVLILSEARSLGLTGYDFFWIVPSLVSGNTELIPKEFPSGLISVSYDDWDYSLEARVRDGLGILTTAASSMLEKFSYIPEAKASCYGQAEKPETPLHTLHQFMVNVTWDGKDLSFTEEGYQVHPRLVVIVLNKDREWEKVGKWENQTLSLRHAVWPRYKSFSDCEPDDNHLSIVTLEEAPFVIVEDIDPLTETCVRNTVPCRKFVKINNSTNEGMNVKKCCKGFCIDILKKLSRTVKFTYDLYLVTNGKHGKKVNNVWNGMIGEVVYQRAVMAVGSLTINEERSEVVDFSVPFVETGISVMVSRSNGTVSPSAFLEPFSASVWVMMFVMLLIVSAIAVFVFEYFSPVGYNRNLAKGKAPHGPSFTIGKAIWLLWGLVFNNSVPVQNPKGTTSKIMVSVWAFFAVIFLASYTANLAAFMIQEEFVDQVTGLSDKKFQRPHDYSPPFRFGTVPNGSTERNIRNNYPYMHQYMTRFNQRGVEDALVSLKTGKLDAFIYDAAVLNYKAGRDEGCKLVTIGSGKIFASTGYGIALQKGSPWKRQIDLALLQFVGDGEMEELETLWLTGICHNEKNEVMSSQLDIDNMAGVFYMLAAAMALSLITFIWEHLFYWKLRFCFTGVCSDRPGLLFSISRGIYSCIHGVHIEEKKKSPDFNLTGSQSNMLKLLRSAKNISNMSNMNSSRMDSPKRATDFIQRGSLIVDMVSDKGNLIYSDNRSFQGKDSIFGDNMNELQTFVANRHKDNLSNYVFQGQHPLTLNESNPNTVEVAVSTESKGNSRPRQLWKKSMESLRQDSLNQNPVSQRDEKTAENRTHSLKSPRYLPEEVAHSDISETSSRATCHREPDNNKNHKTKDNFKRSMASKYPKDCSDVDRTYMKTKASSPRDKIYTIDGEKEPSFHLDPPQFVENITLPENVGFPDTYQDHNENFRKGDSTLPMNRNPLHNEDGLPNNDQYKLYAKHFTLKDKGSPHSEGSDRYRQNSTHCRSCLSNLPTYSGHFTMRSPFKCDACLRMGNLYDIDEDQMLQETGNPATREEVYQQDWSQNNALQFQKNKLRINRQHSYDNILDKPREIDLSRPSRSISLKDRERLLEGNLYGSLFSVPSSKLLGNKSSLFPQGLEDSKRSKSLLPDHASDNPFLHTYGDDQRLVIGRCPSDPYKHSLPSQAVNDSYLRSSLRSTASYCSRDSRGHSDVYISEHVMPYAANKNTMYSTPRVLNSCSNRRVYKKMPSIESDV", "UniProt Q00959, 23-1464 I755F": "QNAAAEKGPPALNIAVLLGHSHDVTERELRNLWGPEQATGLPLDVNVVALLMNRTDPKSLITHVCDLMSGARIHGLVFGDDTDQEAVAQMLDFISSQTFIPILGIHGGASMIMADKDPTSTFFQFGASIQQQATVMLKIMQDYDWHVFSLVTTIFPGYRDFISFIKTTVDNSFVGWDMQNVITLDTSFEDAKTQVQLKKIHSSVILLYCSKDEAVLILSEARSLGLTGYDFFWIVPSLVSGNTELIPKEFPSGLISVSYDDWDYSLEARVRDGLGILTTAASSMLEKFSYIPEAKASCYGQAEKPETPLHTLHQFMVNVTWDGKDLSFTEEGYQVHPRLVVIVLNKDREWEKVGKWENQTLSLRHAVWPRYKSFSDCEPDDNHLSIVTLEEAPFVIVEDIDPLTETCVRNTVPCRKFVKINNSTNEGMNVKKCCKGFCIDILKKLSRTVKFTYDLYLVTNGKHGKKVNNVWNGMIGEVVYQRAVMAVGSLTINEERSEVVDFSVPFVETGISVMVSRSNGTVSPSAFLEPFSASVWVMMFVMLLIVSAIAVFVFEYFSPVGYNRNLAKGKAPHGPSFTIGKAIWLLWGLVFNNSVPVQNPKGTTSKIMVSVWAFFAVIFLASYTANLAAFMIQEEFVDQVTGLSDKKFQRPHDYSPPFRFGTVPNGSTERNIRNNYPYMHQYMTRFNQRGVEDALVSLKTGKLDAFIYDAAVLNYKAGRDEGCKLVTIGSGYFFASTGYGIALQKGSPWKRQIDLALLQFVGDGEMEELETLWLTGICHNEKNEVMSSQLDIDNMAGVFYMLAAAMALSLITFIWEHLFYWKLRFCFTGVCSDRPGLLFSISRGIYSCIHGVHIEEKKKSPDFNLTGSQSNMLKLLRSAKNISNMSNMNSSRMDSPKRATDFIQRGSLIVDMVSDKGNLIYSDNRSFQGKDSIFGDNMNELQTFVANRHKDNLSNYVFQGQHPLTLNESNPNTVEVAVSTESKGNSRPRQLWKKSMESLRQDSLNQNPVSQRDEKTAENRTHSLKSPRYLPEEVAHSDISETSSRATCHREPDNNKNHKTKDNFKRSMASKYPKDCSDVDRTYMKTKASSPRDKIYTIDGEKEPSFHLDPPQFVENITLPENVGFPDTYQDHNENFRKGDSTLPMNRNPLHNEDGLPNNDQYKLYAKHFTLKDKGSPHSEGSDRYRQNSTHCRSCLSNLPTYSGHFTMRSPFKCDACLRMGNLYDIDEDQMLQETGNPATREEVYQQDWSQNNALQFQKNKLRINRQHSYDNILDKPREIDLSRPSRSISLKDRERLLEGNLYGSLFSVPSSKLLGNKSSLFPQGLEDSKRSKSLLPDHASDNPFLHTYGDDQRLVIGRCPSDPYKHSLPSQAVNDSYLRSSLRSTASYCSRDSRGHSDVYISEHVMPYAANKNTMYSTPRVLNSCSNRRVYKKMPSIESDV"}, "source": "paper PMC12772459", "about": "(The Journal of general physiology, 2025)", "key": {"[1]": {"target": "GluN1-Y535A/2A (Rattus norvegicus, UniProt P35439+Q00959, Y535A)", "assay": "Two-electrode voltage-clamp recordings, mutant GluN1-Y535A/2A", "type": "cell-based", "conditions": "300 μM glutamate"}, "[2]": {"target": "GluN1-R755A/2A (Rattus norvegicus, UniProt P35439+Q00959, R755A)", "assay": "Two-electrode voltage-clamp recordings, mutant GluN1-R755A/2A", "type": "cell-based", "conditions": "300 μM glutamate"}, "[3]": {"target": "GluN1/2A-V529I (Rattus norvegicus, UniProt P35439+Q00959, V529I)", "assay": "Two-electrode voltage-clamp recordings, mutant GluN1/2A-V529I", "type": "cell-based", "conditions": "300 μM glutamate"}, "[4]": {"target": "GluN1/2A-Y754K (Rattus norvegicus, UniProt P35439+Q00959, Y754K)", "assay": "Two-electrode voltage-clamp recordings, mutant GluN1/2A-Y754K", "type": "cell-based", "conditions": "300 μM glutamate"}, "[5]": {"target": "GluN1/2A-I755F (Rattus norvegicus, UniProt P35439+Q00959, I755F)", "assay": "Two-electrode voltage-clamp recordings, mutant GluN1/2A-I755F", "type": "cell-based", "conditions": "300 μM glutamate"}, "[6]": {"target": "GluN1/2A-I755V (Rattus norvegicus, UniProt P35439+Q00959, I755V)", "assay": "Two-electrode voltage-clamp recordings, mutant GluN1/2A-I755V", "type": "cell-based", "conditions": "300 μM glutamate"}, "[7]": {"target": "GluN1/2A-I755V+Y754K (Rattus norvegicus, UniProt P35439+Q00959, I755V/Y754K)", "assay": "Two-electrode voltage-clamp recordings, mutant GluN1/2A-I755V+Y754K", "type": "cell-based", "conditions": "300 μM glutamate"}, "[8]": {"target": "GluN1/2A-V783F (Rattus norvegicus, UniProt P35439+Q00959, V783F)", "assay": "Two-electrode voltage-clamp recordings, mutant GluN1/2A-V783F", "type": "cell-based", "conditions": "300 μM glutamate"}, "[9]": {"target": "GluN1/2A-V783L (Rattus norvegicus, UniProt P35439+Q00959, V783L)", "assay": "Two-electrode voltage-clamp recordings, mutant GluN1/2A-V783L", "type": "cell-based", "conditions": "300 μM glutamate"}, "[10]": {"target": "GluN1/2A-M788I (Rattus norvegicus, UniProt P35439+Q00959, M788I)", "assay": "Two-electrode voltage-clamp recordings, mutant GluN1/2A-M788I", "type": "cell-based", "conditions": "300 μM glutamate"}, "[11]": {"target": "GluN1/2A-M788T (Rattus norvegicus, UniProt P35439+Q00959, M788T)", "assay": "Two-electrode voltage-clamp recordings, mutant GluN1/2A-M788T", "type": "cell-based", "conditions": "300 μM glutamate"}, "[12]": {"target": "GluN1/2A-E789Q (Rattus norvegicus, UniProt P35439+Q00959, E789Q)", "assay": "Two-electrode voltage-clamp recordings, mutant GluN1/2A-E789Q", "type": "cell-based", "conditions": "300 μM glutamate"}, "[13]": {"target": "GluN1/2A-T797S (Rattus norvegicus, UniProt P35439+Q00959, T797S)", "assay": "Two-electrode voltage-clamp recordings, mutant GluN1/2A-T797S", "type": "cell-based", "conditions": "300 μM glutamate"}, "[14]": {"target": "GluN1/2A receptors (Rattus norvegicus, UniProt P35439+Q00959)", "conditions": "300 μM glutamate; ref Lotti et al. (2025); cited from earlier work"}, "[15]": {"target": "GluN1/2B receptors (Rattus norvegicus, UniProt P35439+Q00960)", "conditions": "300 μM glutamate; ref Zhao et al. (2022); cited from earlier work"}, "[16]": {"target": "GluN1/2C receptors (Rattus norvegicus, UniProt P35439+Q00961)", "conditions": "300 μM glutamate; ref Zhao et al. (2022); cited from earlier work"}, "[17]": {"target": "GluN1/2D receptors (Rattus norvegicus, UniProt P35439+Q62645)", "conditions": "300 μM glutamate; ref Zhao et al. (2022); cited from earlier work"}}}
{"smiles": "NCC(=O)O", "note": "[Glycine]", "values": [{"measurement": "Hill slope nH of glycine activation", "setting": "[1]", "value": 1.5}, {"measurement": "Hill slope nH of glycine activation", "setting": "[2]", "value": 1.9}, {"measurement": "Hill slope nH of glycine activation", "setting": "[3]", "value": 1.5}, {"measurement": "Hill slope nH of glycine activation", "setting": "[4]", "value": 1.6}, {"measurement": "Hill slope nH of glycine activation", "setting": "[5]", "value": 1.9}, {"measurement": "Hill slope nH of glycine activation", "setting": "[6]", "value": 1.6}, {"measurement": "Hill slope nH of glycine activation", "setting": "[7]", "value": 1.7}, {"measurement": "Hill slope nH of glycine activation", "setting": "[8]", "value": 1.8}, {"measurement": "Hill slope nH of glycine activation", "setting": "[9]", "value": 1.7}, {"measurement": "Hill slope nH of glycine activation", "setting": "[10]", "value": 1.7}, {"measurement": "Hill slope nH of glycine activation", "setting": "[11]", "value": 1.7}, {"measurement": "Hill slope nH of glycine activation", "setting": "[12]", "value": 1.6}, {"measurement": "Hill slope nH of glycine activation", "setting": "[13]", "value": 1.5}, {"measurement": "Hill slope nH of glycine activation", "setting": "[14]", "value": 1.6}, {"measurement": "Hill slope nH of glycine activation", "setting": "[15]", "value": 1.8}, {"measurement": "Hill slope nH of glycine activation", "setting": "[16]", "value": 1.6}, {"measurement": "Hill slope nH of glycine activation", "setting": "[17]", "value": 1.3}]}
